The list shows a part of the results, in another mix than the full data. Activity calls are given as the source filed them. No stated cut-off is given here; in the data, active means inhibition above about 80%; inactive means the rest.

Sequences of proteins named here, by UniProt entry; tags and fusion partners are left off.
UniProt P34913, whole entry: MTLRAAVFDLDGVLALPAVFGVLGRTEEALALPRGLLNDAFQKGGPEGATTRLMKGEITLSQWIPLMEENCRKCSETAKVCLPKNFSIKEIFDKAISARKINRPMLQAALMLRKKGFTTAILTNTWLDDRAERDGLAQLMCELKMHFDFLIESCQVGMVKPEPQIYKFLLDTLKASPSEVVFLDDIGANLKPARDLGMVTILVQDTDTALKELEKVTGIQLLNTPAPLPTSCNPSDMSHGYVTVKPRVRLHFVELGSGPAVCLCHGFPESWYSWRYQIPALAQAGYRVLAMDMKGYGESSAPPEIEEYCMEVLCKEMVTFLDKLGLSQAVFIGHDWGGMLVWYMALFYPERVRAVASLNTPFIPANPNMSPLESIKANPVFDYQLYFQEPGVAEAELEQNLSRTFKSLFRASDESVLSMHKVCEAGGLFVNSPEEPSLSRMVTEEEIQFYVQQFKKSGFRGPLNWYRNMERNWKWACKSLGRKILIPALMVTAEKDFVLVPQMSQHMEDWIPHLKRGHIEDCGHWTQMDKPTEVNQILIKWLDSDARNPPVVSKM

The target of this experiment is Bifunctional epoxide hydrolase 2 (Homo sapiens) (UniProt P34913). Briefly: sEH enzyme activity blockers – biochemical, human sEH, primary screen (AID 707). The following applies: recombinant human sEH enzymatic activity assay; at 2 µM; hits give high values.
In the case of `CCOP1(=S)c2c(C)nn(CCC#N)c2N=C(c2ccccc2F)N1C` (stereo unspecified), the inhibition was inactive: -1.4%.

As usually defined, the inhibition is the relative decrease from the control value, in per cent.

The values above are taken from PubChem BioAssay AID707 (Columbia University Molecular Screening Center, 2007).
